Data as given in ChEMBL document CHEMBL4622974, “Leveraging an Open Science Drug Discovery Model to Develop CNS-Penetrant ALK2 Inhibitors for the Treatment of Diffuse Intrinsic Pontine Glioma” (J Med Chem, 2020).
Activity calls are given as the source filed them. The calls are words filed in the database; no cut-off is given here.

The chains behind the UniProt entries cited, without tags or fusion partners. Where a name states a change or a piece, a line headed by the entry shows the natural chain unless it says otherwise.
UniProt Q9H1R3: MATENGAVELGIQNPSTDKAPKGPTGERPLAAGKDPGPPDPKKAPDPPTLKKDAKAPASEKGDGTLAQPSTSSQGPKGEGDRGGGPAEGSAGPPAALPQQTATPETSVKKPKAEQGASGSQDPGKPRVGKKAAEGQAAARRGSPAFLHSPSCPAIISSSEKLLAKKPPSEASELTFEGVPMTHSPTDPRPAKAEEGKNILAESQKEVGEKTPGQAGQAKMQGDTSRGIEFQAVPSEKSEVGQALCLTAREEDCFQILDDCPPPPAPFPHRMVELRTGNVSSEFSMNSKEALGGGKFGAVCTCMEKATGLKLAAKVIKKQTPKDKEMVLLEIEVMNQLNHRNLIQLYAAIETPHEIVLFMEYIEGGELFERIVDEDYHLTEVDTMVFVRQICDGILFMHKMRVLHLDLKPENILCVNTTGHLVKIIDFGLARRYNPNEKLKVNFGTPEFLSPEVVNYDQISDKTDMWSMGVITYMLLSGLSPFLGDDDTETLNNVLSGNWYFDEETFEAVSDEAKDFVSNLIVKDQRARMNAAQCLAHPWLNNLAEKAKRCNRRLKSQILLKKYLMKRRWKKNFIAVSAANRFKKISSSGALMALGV
UniProt O95819: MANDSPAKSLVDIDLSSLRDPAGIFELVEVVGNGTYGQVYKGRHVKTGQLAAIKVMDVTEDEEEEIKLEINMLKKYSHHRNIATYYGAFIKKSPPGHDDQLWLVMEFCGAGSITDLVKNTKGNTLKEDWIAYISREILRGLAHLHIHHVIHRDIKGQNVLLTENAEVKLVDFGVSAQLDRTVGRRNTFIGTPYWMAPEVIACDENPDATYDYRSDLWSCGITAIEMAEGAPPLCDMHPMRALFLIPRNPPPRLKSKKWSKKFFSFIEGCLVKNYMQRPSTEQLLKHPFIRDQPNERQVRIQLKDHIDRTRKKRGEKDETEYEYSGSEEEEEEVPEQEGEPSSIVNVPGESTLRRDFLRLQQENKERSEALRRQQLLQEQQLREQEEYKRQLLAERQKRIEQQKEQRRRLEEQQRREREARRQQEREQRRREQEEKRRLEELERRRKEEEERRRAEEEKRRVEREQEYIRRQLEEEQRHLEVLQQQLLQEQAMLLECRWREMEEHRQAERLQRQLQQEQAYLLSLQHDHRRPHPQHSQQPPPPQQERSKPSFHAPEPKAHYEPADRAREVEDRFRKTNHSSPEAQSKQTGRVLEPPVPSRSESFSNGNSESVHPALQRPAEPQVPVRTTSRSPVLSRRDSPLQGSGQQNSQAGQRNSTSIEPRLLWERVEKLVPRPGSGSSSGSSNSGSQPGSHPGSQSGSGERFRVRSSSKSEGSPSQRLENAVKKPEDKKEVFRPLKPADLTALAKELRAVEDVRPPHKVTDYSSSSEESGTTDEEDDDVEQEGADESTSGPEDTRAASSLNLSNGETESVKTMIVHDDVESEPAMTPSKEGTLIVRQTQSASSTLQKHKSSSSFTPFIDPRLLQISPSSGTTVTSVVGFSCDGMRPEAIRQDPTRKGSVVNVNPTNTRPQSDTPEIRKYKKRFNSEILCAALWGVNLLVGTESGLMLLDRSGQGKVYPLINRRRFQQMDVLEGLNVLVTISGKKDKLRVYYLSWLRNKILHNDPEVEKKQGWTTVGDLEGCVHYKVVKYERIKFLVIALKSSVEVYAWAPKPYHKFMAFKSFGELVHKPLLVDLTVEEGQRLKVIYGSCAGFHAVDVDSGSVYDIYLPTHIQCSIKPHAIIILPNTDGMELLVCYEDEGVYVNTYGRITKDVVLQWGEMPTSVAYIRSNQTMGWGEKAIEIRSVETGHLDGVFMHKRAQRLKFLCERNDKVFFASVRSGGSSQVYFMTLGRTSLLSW
UniProt P07948: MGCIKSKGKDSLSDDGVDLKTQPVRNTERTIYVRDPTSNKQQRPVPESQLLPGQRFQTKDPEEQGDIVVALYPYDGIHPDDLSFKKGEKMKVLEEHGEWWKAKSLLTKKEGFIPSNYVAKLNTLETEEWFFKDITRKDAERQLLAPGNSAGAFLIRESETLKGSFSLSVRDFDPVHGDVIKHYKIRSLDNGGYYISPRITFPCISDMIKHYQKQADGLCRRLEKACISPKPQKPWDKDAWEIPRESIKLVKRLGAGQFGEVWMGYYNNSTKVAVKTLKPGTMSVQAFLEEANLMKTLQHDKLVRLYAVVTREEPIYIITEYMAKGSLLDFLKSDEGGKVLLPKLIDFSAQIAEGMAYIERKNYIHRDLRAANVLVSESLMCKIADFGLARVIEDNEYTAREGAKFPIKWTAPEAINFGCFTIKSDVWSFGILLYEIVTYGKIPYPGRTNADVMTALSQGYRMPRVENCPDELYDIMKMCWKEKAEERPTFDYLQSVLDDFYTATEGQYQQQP
UniProt P06239: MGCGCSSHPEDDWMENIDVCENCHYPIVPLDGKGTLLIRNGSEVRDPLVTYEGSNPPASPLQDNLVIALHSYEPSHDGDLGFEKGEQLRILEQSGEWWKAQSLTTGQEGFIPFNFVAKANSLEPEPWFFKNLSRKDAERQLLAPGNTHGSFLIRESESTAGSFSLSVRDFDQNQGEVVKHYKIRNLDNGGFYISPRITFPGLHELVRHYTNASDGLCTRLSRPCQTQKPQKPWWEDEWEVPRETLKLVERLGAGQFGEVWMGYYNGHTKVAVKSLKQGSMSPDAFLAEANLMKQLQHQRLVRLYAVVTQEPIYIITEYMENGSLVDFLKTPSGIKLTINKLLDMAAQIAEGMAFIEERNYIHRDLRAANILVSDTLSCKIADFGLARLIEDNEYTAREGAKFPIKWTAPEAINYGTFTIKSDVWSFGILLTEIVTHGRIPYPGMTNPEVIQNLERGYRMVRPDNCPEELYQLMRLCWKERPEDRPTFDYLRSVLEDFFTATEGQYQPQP
UniProt Q9Y2K2: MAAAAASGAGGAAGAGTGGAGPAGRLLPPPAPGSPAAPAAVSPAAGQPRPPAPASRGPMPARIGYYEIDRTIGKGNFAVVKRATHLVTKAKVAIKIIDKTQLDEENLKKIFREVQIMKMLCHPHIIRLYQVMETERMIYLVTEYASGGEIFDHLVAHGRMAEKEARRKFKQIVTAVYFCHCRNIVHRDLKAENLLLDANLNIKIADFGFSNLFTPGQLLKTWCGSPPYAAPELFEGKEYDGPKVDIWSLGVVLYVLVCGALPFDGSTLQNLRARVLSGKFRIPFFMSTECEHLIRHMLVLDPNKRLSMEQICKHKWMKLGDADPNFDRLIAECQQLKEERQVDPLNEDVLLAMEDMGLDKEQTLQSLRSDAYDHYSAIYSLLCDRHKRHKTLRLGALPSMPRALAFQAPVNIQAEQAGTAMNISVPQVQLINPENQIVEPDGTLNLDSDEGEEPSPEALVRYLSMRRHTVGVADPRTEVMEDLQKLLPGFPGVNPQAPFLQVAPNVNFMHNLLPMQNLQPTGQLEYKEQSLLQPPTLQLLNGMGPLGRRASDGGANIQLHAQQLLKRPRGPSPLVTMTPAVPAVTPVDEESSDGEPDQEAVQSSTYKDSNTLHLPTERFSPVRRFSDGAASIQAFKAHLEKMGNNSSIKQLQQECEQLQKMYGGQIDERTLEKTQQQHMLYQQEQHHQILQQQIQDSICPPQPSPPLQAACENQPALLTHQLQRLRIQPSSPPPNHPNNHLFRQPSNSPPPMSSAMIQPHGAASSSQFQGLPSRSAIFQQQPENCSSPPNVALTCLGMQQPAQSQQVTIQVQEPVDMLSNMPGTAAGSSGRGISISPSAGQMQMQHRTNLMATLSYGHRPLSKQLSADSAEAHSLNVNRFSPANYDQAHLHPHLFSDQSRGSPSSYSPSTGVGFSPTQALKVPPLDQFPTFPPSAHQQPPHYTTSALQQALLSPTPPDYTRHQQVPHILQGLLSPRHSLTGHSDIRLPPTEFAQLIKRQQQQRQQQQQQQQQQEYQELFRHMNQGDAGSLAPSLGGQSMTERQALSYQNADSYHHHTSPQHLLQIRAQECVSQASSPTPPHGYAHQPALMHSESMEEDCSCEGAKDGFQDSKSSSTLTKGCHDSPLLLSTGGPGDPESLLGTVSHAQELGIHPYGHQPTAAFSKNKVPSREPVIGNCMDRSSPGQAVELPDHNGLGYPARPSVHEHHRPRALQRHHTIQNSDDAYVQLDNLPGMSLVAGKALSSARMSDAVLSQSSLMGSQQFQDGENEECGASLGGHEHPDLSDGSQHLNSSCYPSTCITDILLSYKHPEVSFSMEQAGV
UniProt Q9Y4K4: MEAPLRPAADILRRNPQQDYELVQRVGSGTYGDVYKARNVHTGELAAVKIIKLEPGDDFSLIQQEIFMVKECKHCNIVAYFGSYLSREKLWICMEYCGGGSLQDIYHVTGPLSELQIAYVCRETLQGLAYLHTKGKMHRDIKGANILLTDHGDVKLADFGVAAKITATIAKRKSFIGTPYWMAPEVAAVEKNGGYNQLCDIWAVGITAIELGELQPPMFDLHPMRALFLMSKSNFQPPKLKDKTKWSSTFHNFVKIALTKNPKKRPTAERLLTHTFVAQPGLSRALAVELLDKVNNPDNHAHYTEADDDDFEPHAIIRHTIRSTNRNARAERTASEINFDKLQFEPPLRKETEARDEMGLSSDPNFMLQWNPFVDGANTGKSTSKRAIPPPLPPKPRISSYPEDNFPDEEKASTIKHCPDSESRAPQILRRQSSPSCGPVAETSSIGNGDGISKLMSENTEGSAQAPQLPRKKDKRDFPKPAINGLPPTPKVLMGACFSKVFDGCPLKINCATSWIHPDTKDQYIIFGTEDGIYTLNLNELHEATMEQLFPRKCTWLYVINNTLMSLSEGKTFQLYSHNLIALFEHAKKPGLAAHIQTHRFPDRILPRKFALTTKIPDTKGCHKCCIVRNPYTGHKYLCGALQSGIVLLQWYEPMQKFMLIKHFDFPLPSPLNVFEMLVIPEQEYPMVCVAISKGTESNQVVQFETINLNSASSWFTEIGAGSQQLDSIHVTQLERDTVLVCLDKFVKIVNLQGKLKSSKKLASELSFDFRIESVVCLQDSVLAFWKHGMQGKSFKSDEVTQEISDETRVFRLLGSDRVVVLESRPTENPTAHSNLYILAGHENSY

What was measured:
Details in all cases: 1 uM
[1] = biological target: T1, Serine/threonine-protein kinase NLK (Homo sapiens) (UniProt Q9UBE8)
T1 sequence (whole entry): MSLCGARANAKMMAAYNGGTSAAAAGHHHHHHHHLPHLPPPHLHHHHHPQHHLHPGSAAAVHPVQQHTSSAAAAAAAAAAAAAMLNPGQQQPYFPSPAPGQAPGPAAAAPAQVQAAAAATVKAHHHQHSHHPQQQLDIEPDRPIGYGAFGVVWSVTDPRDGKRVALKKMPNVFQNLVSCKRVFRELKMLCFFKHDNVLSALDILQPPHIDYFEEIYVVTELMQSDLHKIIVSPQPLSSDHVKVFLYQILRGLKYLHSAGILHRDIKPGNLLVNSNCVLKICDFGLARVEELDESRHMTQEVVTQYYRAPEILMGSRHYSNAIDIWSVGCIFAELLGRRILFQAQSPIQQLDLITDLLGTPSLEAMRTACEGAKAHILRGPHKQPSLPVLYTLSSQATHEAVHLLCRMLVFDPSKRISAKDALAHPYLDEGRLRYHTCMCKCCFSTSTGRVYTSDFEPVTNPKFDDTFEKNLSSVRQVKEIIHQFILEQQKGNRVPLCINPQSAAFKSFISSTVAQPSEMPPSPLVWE

[2] = biological target: Myosin light chain kinase 2, skeletal/cardiac muscle (Homo sapiens) (UniProt Q9H1R3)
[3] = biological target: Mitogen-activated protein kinase kinase kinase kinase 4 (Homo sapiens) (UniProt O95819)
[4] = biological target: Tyrosine-protein kinase Lyn (Homo sapiens) (UniProt P07948)
[5] = biological target: Tyrosine-protein kinase Lck (Homo sapiens) (UniProt P06239)
[6] = biological target: Serine/threonine-protein kinase SIK3 (Homo sapiens) (UniProt Q9Y2K2)
[7] = biological target: Mitogen-activated protein kinase kinase kinase kinase 5 (Homo sapiens) (UniProt Q9Y4K4)

Compound: COc1cc(-c2cncc(-c3ccc(N4CCNCC4)cc3)c2C)cc(OC)c1F
- inhibition [1]: inactive
- inhibition [2]: 51 to 61%
- inhibition [3]: 51 to 61%
- inhibition [4]: 51 to 61%
- inhibition [5]: 51 to 61%
- inhibition [6]: 51 to 61%
- inhibition [7]: 51 to 61%
